46 variants from the Human Domainome abundance scans (Beltran et al. 2025) can be followed below.

Sequences and labels used below:
B1: Tyrosine-protein kinase ABL1, residues 64 to 120; numbered along this chain, P00519 (parent)
chain: NLFVALYDFVASGDNTLSITKGEKLRVLGYNHNGEWCEAQTKNGQGWVPSNYITPVN

± gives the uncertainty stated by the source.

Variants of B1 are the subject of the series. The series can be described thus: abundance fitness (aPCA) (normalised: wild type 0, dead -1); higher = more abundant; growth selection in yeast, the domain comes from the species named. Particulars: Homo sapiens.
As for NLFVALYDFVASGDNTLSITKGEKLRYLGYNHNGEWCEAQTKNGQGWVPSNYITPVN [V27Y], the abundance fitness was -0.914 ± 0.4.

Regarding NLFVALYDFVASGDNTLSITKGEKLRWLGYNHNGEWCEAQTKNGQGWVPSNYITPVN [V27W], the abundance fitness is -0.313 ± 0.12.

For the variant NLFVALYDFVASGDNTLSITKGEKLRVLGYNSNGEWCEAQTKNGQGWVPSNYITPVN [H32S], the abundance fitness is -0.03 ± 0.083.

As for NLFVALYDFVASGDNTLSITKGEKLRVLGYNQNGEWCEAQTKNGQGWVPSNYITPVN [H32Q], the abundance fitness is 0.44 ± 0.12.

Turning to NLFVALYDFVASGDNTLSITKGEKLRVLGYNDNGEWCEAQTKNGQGWVPSNYITPVN [H32D], the abundance fitness stood at 0.112 ± 0.083.

For the variant NLFVALYDFVASGDNTLSITKGEKLRVLGYNLNGEWCEAQTKNGQGWVPSNYITPVN [H32L], the abundance fitness was -0.05 ± 0.06.

NLFVALYDFVASGDNTLSITKGEKLRVLGYNRNGEWCEAQTKNGQGWVPSNYITPVN [H32R]: the abundance fitness worked out at 0.106 ± 0.066.

Take NLFVALYDFVASGDNTLSITKGEKLRVLGYNVNGEWCEAQTKNGQGWVPSNYITPVN [H32V]: the abundance fitness was -0.114 ± 0.064.

With NLFVALYDFVASGDNTLSITKGEKLRVLGYNFNGEWCEAQTKNGQGWVPSNYITPVN [H32F], the abundance fitness was -0.137 ± 0.068.

Take NLFVALYDFVASGDNTLSITKGEKLRVLGYNENGEWCEAQTKNGQGWVPSNYITPVN [H32E]: the abundance fitness was found to be 0.137 ± 0.085.

For NLFVALYDFVASGDNTLSITKGEKLRVLGYNKNGEWCEAQTKNGQGWVPSNYITPVN [H32K], the abundance fitness is 0.206 ± 0.11.

Turning to NLFVALYDFVASGDNTLSITKGEKLRVLGYNINGEWCEAQTKNGQGWVPSNYITPVN [H32I], the abundance fitness is -0.033 ± 0.14.

As to NLFVALYDFVASGDNTLSITKGEKLRVLGYNCNGEWCEAQTKNGQGWVPSNYITPVN [H32C], the abundance fitness is 0.407 ± 0.12.

Consider NLFVALYDFVASGDNTLSITKGEKLRVLGYNPNGEWCEAQTKNGQGWVPSNYITPVN [H32P], for which the abundance fitness is 0.07 ± 0.057.

As to NLFVALYDFVASGDNTLSITKGEKLRVLGYNNNGEWCEAQTKNGQGWVPSNYITPVN [H32N], the abundance fitness is -0.306 ± 0.18.

As to NLFVALYDFVASGDNTLSITKGEKLRVLGYNWNGEWCEAQTKNGQGWVPSNYITPVN [H32W], the abundance fitness is -0.057 ± 0.056.

Turning to NLFVALYDFVASGDNTLSITKGEKLRVLGYNYNGEWCEAQTKNGQGWVPSNYITPVN [H32Y], the abundance fitness amounted to 0.041 ± 0.096.

Turning to NLFVALYDFVASGDNTLSITKGEKLRVLGYNTNGEWCEAQTKNGQGWVPSNYITPVN [H32T], the abundance fitness is 0.053 ± 0.12.

As for NLFVALYDFVASGDNTLSITKGEKLRVHGYNHNGEWCEAQTKNGQGWVPSNYITPVN [L28H], the abundance fitness is -0.625 ± 0.37.

As for NLFVALYDFVASGDNTLSITKGEKLRVTGYNHNGEWCEAQTKNGQGWVPSNYITPVN [L28T], the abundance fitness is -0.163 ± 0.13.

For NLFVALYDFVASGDNTLSITKGEKLRVNGYNHNGEWCEAQTKNGQGWVPSNYITPVN [L28N], the abundance fitness was -0.07 ± 0.094.

NLFVALYDFVASGDNTLSITKGEKLRVKGYNHNGEWCEAQTKNGQGWVPSNYITPVN [L28K]: the abundance fitness is -0.264 ± 0.12.

Turning to NLFVALYDFVASGDNTLSITKGEKLRVFGYNHNGEWCEAQTKNGQGWVPSNYITPVN [L28F], the abundance fitness is -0.441 ± 0.22.

As for NLFVALYDFVASGDNTLSITKGEKLRVCGYNHNGEWCEAQTKNGQGWVPSNYITPVN [L28C], the abundance fitness is -0.033 ± 0.064.

For NLFVALYDFVASGDNTLSITKGEKLRVVGYNHNGEWCEAQTKNGQGWVPSNYITPVN [L28V], the abundance fitness was -0.088 ± 0.082.

On to NLFVALYDFVASGDNTLSITKGEKLRVQGYNHNGEWCEAQTKNGQGWVPSNYITPVN [L28Q], for which the abundance fitness is -0.188 ± 0.11.

On to NLFVALYDFVASGDNTLSITKGEKLRVYGYNHNGEWCEAQTKNGQGWVPSNYITPVN [L28Y], for which the abundance fitness is -0.069 ± 0.12.

For the variant NLFVALYDFVASGDNTLSITKGEKLRVEGYNHNGEWCEAQTKNGQGWVPSNYITPVN [L28E], the abundance fitness is -0.177 ± 0.073.

For NLFVALYDFVASGDNTLSITKGEKLRVAGYNHNGEWCEAQTKNGQGWVPSNYITPVN [L28A], the abundance fitness was -0.141 ± 0.1.

In the case of NLFVALYDFVASGDNTLSITKGEKLRVPGYNHNGEWCEAQTKNGQGWVPSNYITPVN [L28P], the abundance fitness is -0.708 ± 0.24.

For the variant NLFVALYDFVASGDNTLSITKGEKLRVGGYNHNGEWCEAQTKNGQGWVPSNYITPVN [L28G], the abundance fitness was -0.323 ± 0.055.

As to NLFVALYDFVASGDNTLSITKGEKLRVSGYNHNGEWCEAQTKNGQGWVPSNYITPVN [L28S], the abundance fitness was -0.115 ± 0.057.

Turning to NLFVALYDFVASGDNTLSITKGEKLRVRGYNHNGEWCEAQTKNGQGWVPSNYITPVN [L28R], the abundance fitness is 0.022 ± 0.072.

For NLFVALYDFVASGDNTLSITKGEKLRVDGYNHNGEWCEAQTKNGQGWVPSNYITPVN [L28D], the abundance fitness was -0.198 ± 0.14.

In the case of NLFVALYDFVASGDNTLSITKGEKLRVMGYNHNGEWCEAQTKNGQGWVPSNYITPVN [L28M], the abundance fitness stood at 0.166 ± 0.1.

As for NLFVALYDFVASGDNTLSITKGEKLRVWGYNHNGEWCEAQTKNGQGWVPSNYITPVN [L28W], the abundance fitness is -0.307 ± 0.075.

Turning to NLFVALYDFVASGDNTLSITKGEKLRVLGGNHNGEWCEAQTKNGQGWVPSNYITPVN [Y30G], the abundance fitness was -0.022 ± 0.07.

Turning to NLFVALYDFVASGDNTLSITKGEKLRVLGHNHNGEWCEAQTKNGQGWVPSNYITPVN [Y30H], the abundance fitness was -0.348 ± 0.22.

NLFVALYDFVASGDNTLSITKGEKLRVLGNNHNGEWCEAQTKNGQGWVPSNYITPVN [Y30N]: the abundance fitness is -0.177 ± 0.12.

With NLFVALYDFVASGDNTLSITKGEKLRVLGFNHNGEWCEAQTKNGQGWVPSNYITPVN [Y30F], the abundance fitness is -0.075 ± 0.098.

As to NLFVALYDFVASGDNTLSITKGEKLRVLGLNHNGEWCEAQTKNGQGWVPSNYITPVN [Y30L], the abundance fitness is -0.149 ± 0.053.

NLFVALYDFVASGDNTLSITKGEKLRVLGSNHNGEWCEAQTKNGQGWVPSNYITPVN [Y30S]: the abundance fitness is 0.072 ± 0.078.

With NLFVALYDFVASGDNTLSITKGEKLRVLGCNHNGEWCEAQTKNGQGWVPSNYITPVN [Y30C], the abundance fitness was -0.219 ± 0.09.

On to NLFVALYDFVASGDNTLSITKGEKLRVLGRNHNGEWCEAQTKNGQGWVPSNYITPVN [Y30R], for which the abundance fitness was determined as 0.065 ± 0.068.

Turning to NLFVALYDFVASGDNTLSITKGEKLRVLGKNHNGEWCEAQTKNGQGWVPSNYITPVN [Y30K], the abundance fitness is -0.179 ± 0.14.

For NLFVALYDFVASGDNTLSITKGEKLRVLGWNHNGEWCEAQTKNGQGWVPSNYITPVN [Y30W], the abundance fitness is -0.117 ± 0.099.
